One compound from publication PMC12763877, “Novel APLNR antagonist candesartan induces tumor vascular normalization through ROS/cGAS/STING axis and augmented sunitinib response in breast cancer” (Journal of Experimental & Clinical Cancer Research : CR, 2025) can be followed below.

The experiment relates to 4T1 cells (orthotopic breast cancer). Briefly: Anti-tumor efficacy in breast cancer mouse model, alone or with Sunitinib. It counts as in vivo, BALB/c mice. Conditions: candesartan 10 mg/kg once daily, Sunitinib 40 mg/kg every two days, intragastric, 14 days; vs vehicle.

On to `CCN(CC)CCNC(=O)c1c(C)[nH]c(/C=C2\C(=O)Nc3ccc(F)cc32)c1C` [Sunitinib], for which the Tumor growth result is recorded as “significantly reduce the tumor growth”.
